Biological target: T1, IDE (Rattus norvegicus, UniProt P35559)
T1 sequence (P35559 1-1019): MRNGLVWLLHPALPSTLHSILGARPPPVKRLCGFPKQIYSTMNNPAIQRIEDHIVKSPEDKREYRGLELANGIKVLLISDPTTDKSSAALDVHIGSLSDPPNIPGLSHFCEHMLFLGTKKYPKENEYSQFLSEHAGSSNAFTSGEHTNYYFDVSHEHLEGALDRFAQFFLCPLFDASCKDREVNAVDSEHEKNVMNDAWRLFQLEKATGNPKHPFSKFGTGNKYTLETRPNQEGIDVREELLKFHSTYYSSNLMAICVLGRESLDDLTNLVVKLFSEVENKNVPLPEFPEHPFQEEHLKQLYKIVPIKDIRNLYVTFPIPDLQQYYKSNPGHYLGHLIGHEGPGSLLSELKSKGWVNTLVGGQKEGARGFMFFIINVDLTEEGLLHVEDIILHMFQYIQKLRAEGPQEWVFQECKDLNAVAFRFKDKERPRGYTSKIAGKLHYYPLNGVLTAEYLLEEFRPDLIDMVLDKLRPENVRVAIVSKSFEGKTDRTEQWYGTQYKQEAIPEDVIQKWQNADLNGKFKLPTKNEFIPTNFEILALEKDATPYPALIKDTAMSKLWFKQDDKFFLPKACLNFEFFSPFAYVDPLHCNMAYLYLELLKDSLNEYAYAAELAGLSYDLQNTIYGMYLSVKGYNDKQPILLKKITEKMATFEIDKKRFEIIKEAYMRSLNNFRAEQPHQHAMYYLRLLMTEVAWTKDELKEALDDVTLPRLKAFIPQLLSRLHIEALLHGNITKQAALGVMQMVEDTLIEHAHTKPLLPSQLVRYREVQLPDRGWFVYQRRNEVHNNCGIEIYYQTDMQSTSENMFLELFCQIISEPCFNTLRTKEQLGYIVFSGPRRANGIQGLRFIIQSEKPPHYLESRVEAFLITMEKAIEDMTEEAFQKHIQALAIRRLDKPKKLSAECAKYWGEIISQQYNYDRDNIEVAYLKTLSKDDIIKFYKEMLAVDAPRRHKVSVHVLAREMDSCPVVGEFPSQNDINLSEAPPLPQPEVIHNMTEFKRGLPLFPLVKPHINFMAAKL
Assay: Specificity/inhibition of T40-degrading activity of IDE
Format: biochemical
Parameters: purchased Merck, UK
Settings: 16 µM T40, 22 nM IDE, 37°C, 90 min; insulin or IgG 2–16 µM, 1,10-phenanthroline 1 and 10 mM

## c1cnc2c(c1)ccc1cccnc12 [1,10-phenanthroline]
  inhibition of IDE degradation of T40: dose dependent inhibition

Reference: PMC1920558 (PLoS ONE, 2007)
